Assay results reported in ChEMBL document CHEMBL5236619, “Design and Optimization of 1H-1,2,3-Triazole-4-carboxamides as Novel, Potent, and Selective Inverse Agonists and Antagonists of PXR” (J Med Chem, 2022).

Target: T1, PXR (NR1I2) ligand binding domain (Homo sapiens, UniProt O75469)
T1 sequence (O75469 whole entry): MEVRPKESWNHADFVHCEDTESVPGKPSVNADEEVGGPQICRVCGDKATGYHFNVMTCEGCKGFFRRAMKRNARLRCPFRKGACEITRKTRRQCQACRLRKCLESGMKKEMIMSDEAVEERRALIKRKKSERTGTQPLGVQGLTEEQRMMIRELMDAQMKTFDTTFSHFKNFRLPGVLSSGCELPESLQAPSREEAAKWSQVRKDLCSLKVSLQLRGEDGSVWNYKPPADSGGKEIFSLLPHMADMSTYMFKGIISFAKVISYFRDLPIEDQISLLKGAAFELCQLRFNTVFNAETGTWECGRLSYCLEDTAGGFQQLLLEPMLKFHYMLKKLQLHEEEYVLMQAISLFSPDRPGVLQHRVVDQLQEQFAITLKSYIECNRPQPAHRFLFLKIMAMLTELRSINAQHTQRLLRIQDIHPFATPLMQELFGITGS
Test: Inhibition of BODIPY FL vindoline binding to recombinant human GST-tagged PXR LBD (111 to 434 residues) expressed in baculovirus infected insect cells at 10 uM incubated for 1 mins under shaking condition followed by 60 mins under dark condition by TR-FRET assay relative to control
Details: probe BODIPY FL vindoline, time 61 min

CCCCOc1ccc(C(C)(C)C)cc1NC(=O)c1nnn(-c2cccc(OC)c2)c1C
inhibition at 1.017 h, 10 µM: 14%
